Literature values in patent US20070105793A1, “Compositions and methods using nicotinic acid for treatment of hypercholesterolemia, hyperlipidemia nd cardiovascular disease” (priority 2005, published 2007).

Test system: β-thromboglobulin
Settings: in vivo

CC(C)(CO)[C@@H](O)C(=O)NCCC(=O)NCCSSCCNC(=O)CCNC(=O)[C@H](O)C(C)(C)CO [Pantethine, pantethine]
effect on β-thromboglobulin: lowers β-thromboglobulin
